Assay: Salt spray test, alkyd formulations (Example VI, FIG. 3)
Settings: alkyd formulation, ASTM B117-73, in words

## Zinc Succinate Ethylenediamine [Compound 1]
  Salt spray durability, comparison: superior to "Zinc Yellow" (zinc chromate) in salt spray durability

Source: patent publication US4626283A, “Corrosion and marine growth inhibiting compositions” (Engelhard Corporation, priority 1985, dated 1986)
